## Binding of CDR-mutated scFvs to a peptide of the spike HR2 region

Antigen: PDVDLGDISGINAS, a 14-residue peptide of the SARS-CoV-2 spike HR2 region.

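The starting antibody came from a phage panning campaign against this peptide. Designed CDR sequences, proposed from the first random library and measured here. Several design methods are mixed in this list. AlphaSeq pools MATa yeast showing the antibodies with MATalpha yeast showing the peptide. After mating in shaken culture at 30 °C for 16 h, diploids were selected and their barcode pairs sequenced. Scores were corrected for input abundance and mapped to Kd with protein pairs of known affinity run in the same pool. There are six technical replicates.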

Ab-14 is the parent antibody, in scFv form: VH, then three GGGGS repeats, then VL. The light chain is unchanged in all variants.
VH: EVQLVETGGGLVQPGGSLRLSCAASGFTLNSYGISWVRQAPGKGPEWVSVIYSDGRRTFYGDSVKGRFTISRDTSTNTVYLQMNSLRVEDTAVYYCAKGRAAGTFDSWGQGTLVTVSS
VL: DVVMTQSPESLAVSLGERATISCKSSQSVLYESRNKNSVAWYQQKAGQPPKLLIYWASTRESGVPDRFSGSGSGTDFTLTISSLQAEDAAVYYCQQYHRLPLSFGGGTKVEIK

Each variant is given by its three heavy chain CDRs, as the data file delimits them; those of the parent are GFTLNSYGIS, VIYSDGRRTFYGDSVK, GRAAGTFDS. Numbers give log10(Kd / nM), so 0 is 1 nM and 3 is 1 µM. Smaller is tighter. A mean of the replicates is given; it leaves out those without a signal. A pair that was not seen in that replicate is written "nd"; this usually means weak binding, but a binder can also be missed. Values of this round are not directly comparable with the first-round values of the same sequences. The authors' rule: three or more of the six replicates give a measured affinity, fewer mean a poor binder. As a blank, each scFv also met three strains without target: over all heavy chain designs, 1% of these pairings were detected, typically at 2.08 and seldom below 0.84. Where one sequence has several entries in the source, the replicates are listed entry by entry, parted by semicolons. The parent sequence was in this pool as ten entries: three were never detected, three once, and four in most replicates, with averages from 0.34 to 2.37.

For GFALNQYGIS / VIYSDGRRTFYSDSVK / GEAAGTFDK, the assay gave nd, nd, nd, nd, nd, nd.
For GYSLDEYGIS / VIYADGVRQFYADDVK / GGIAGQVNY, the assay gave nd, nd, nd, nd, nd, nd.
For GFDLNEYGIS / VIYSDGRRTFYSDSVK / GKAAGTFDS, the assay gave 0.59, 0.26, 0.98, 0.49, 0.04, 0.98 (mean 0.56).
For GFDLNEYGIS / VIYADGQRTAYADDVK / GNNAGTFDM, the assay gave -0.04, -0.12, -0.13, -0.16, -0.16, -0.15 (mean -0.13).
For GFTLNSYGIS / VIYSDGRRTFYKDSVK / GKEAGTFDS, the assay gave 0.64, -0.14, 0.32, 0.82, 0.69, 0.97; 0.58, 0.61, 0.70, -0.32, 1.58, 0.08 (mean 0.54).
For GFMLNSYGIS / VIYADGRRTFYGDSVK / GRAAGTFDP, the assay gave nd, nd, nd, nd, nd, nd.
For GFQLNEYGIS / VIYSDGRRTFYGDQVK / GQAAGTFDL, the assay gave 0.40, 0.53, 0.97, 1.30, 0.39, 0.70 (mean 0.72).
For KFNLNSYGIS / VIYSDGRRVFYGDSVK / GRAAGTFDS, the assay gave nd, nd, nd, nd, nd, nd.
For GFDLEEYGIS / VIYADGVRTAYADSVK / GNVAGTFDV, the assay gave 2.35, nd, 1.03, 1.48, 4.04, 1.87 (mean 2.15).
For GFDLNEYGIS / VIYADGLRTSYADSVK / GQEAGTFDI, the assay gave -0.58, -0.50, -0.42, -0.69, -0.56, -0.41 (mean -0.52).
For GFDLDEYGIS / VIYADGRRSAYHDSFK / GQLGKVSFV, the assay gave nd, nd, nd, nd, nd, nd.
For GFDLEEFGVS / VIYADGKRAAYTDSVK / GHEGAHFTV, the assay gave nd, nd, nd, nd, nd, nd.
For GFELNSYGIS / VIYSDGRRAMYSDSVK / GQAAGTFTS, the assay gave nd, nd, nd, nd, nd, nd.
For GFDLNEYGIS / VIYADGRRTFYTDSVK / GNHAGTFLV, the assay gave nd, nd, nd, nd, nd, nd.
For GFTLDSYGIS / VIYSDGRRTFYGDSVK / GRQAGTFDS, the assay gave 1.10, 0.90, 1.29, 0.95, 1.73, 1.53 (mean 1.25).
For GETLNSYGIS / VIYSDGRRTFYGDSVK / GRAAGTFDA, the assay gave 1.49, nd, nd, 1.11, 1.23, 1.88 (mean 1.43).
For GFVLNEYGIS / VIYSDGKRTFYGDSVK / GRTAGTFDS, the assay gave nd, nd, nd, nd, nd, nd.
For GFTLNQYGIS / VIYSDGRRTFYSDSVK / GRHAGTFDS, the assay gave 2.22, 3.69, 2.01, 3.04, 3.39, 1.73 (mean 2.68).
For GFDLNSYGIS / VIYSDGKRTFYADSVK / GRTAGTFDS, the assay gave -0.30, -0.81, -0.50, -0.69, -0.67, -0.38 (mean -0.56).
For GFTLASYGIS / VIYSDGRRTFYGDSVK / GRFAGTFDN, the assay gave nd, nd, nd, nd, nd, nd.
For GQDLSEYGIS / VIYADGERRSYANSVK / GNVSGNFSQ, the assay gave nd, nd, nd, nd, nd, nd.

The remaining entries, values ahead:

nd, nd, nd, nd, nd, nd: GFTLNSYGIS / VIMSDGRRTFYGDAVK / GRQAGQFDS.
0.63, 0.48, 0.19, 0.59, 0.93, 1.15 (mean 0.66): GFTLNSYGIS / VIYSDGRRTFYGDSVK / GSTAGTFDV.
1.07, 1.04, 1.23, 0.59, 2.08, 0.77 (mean 1.13): GFELNSYGIS / VIYSDGRRTFYIDSVK / GNAAGTFDK.
0.21, -0.26, -0.34, -0.12, -0.75, -0.40 (mean -0.28): GFDLNEYGIS / VIYADGRRTAYIDSVK / GENAGTFDV.
-0.29, -0.54, -0.81, -1.03, -0.91, -0.68 (mean -0.71): GFDLNEYGIS / VIYADGKRSFYADSVK / GQNAGTFDV.
-0.13, -0.34, -0.26, -0.49, -0.40, -0.09 (mean -0.29): GFDLNEYGIS / VIYADGRRTFYADSVK / GQAAGTFNL.
-0.27, -0.61, -0.49, -0.66, -0.43, -0.03 (mean -0.42): GFDLDEYGIS / VIYADGVRTAYSDSVK / GNVAGTFDM.
nd, nd, nd, nd, nd, nd: GFDLNSYGIS / VIYSDGRRTFYSDSVK / GQAAVTFDS.
0.47, 0.82, 0.56, 0.34, 0.14, 0.35; 0.36, -0.18, -0.34, -0.35, -0.18, 0.04 (mean 0.17): GFDLNSYGIS / VIYSDGRRTFYGDSVK / GRVAGTFDS.
1.08, 0.58, 1.71, 2.02, nd, nd (mean 1.35): GFELNSYGIS / VIYSDGRRTFYGDQVK / GQTAGTFDQ.
0.11, 0.20, 0.47, 0.22, 0.03, 0.17 (mean 0.20): GFTLNEYGIS / VIYSDGQRTFYGDSVK / GRTAGTFDK.
nd, nd, nd, nd, nd, nd: KFTLNEYGIS / VIYSDGRRTFYGDSVK / GRAAVTFDT.
-0.32, -0.17, -0.53, -0.81, -0.02, -0.48 (mean -0.39): GFDLDEYGIS / VIYADGMRTAYSDSVK / GNNAGTFDM.
nd, nd, nd, nd, 3.55, nd: GFSLNEYGIS / VIYADGKRMVYADSVK / GSESGWFDI.
0.19, -0.03, 0.21, -0.07, -0.40, 0.02 (mean -0.01): GFNLNEYGIS / VIYADGMRTFYTDDVK / GEFAGTFDL.
nd, nd, nd, nd, nd, nd: GFNLDEYGIS / VIYADGKREAYANKVK / GEQGSFFST.
nd, 1.71, nd, nd, 2.23, nd (mean 1.97): HFNLNSYGIS / VIYSDGRRTFYGDSVK / GRTAGTFDS.
0.25, nd, nd, nd, 0.44, nd (mean 0.34): GFDLNEYGIS / VIYADGRRTFYVDDVK / GVNAGTFDE.
1.70, 0.55, 0.83, 0.93, 0.67, nd (mean 0.94): GFELNEYGIS / VIYSDGRRTFYADWVK / GRTAGTFDS.
0.71, 0.35, nd, 0.04, 1.07, 0.60 (mean 0.55): GFDLDEYGIS / VIYADGMRTAYANSVK / GENAGTFDV.
1.43, 1.72, 1.69, 2.02, 0.67, 1.72 (mean 1.54): GFSLNDYGIS / VIYSDGRRTFYGDSVK / GKEAGTFDS.
1.02, 1.28, 0.54, 0.67, 2.30, 1.17 (mean 1.16): GFWLNEYGIS / VIYSDGRRTFYTDSVK / GRFAGTFDS.

The first 5 entries again:

| CDR-H1 | CDR-H2 | CDR-H3 | replicates, log10 nM | log10 Kd (nM), mean |
|---|---|---|---|---|
| GFALNQYGIS | VIYSDGRRTFYSDSVK | GEAAGTFDK | nd, nd, nd, nd, nd, nd | nd |
| GYSLDEYGIS | VIYADGVRQFYADDVK | GGIAGQVNY | nd, nd, nd, nd, nd, nd | nd |
| GFDLNEYGIS | VIYSDGRRTFYSDSVK | GKAAGTFDS | 0.59, 0.26, 0.98, 0.49, 0.04, 0.98 | 0.56 |
| GFDLNEYGIS | VIYADGQRTAYADDVK | GNNAGTFDM | -0.04, -0.12, -0.13, -0.16, -0.16, -0.15 | -0.13 |
| GFTLNSYGIS | VIYSDGRRTFYKDSVK | GKEAGTFDS | 0.64, -0.14, 0.32, 0.82, 0.69, 0.97; 0.58, 0.61, 0.70, -0.32, 1.58, 0.08 | 0.54 |

Reference: Li et al. 2023, doi:10.1038/s41467-023-39022-2. File: FLAb, binding data.